{
  "source": "PubChem BioAssay AID1745844",
  "about": "(Carcinogenic Potency Database (CPDB), 2022)",
  "tested_on": "rodent lifetime carcinogenesis bioassay, tumor incidence TD50",
  "experiment": "carcinogenic potency in animals, long-term in vivo studies, CPDB compilation (AID 1745844)",
  "conditions": "by gavage; for carcinogen call: dosed 52 weeks",
  "note": "Active and inactive are the calls of the source. The rule behind the calls is not given here.",
  "data": [
    {"molecule": "CC12CCC(CC1)C(C)(C)O2", "values": [
      {"measurement": "TD50", "setting": "mouse, strain CFLP, males, site: any site (literature study), lesion: several types, types named in the paper, dosed 80 weeks, study length 104 weeks", "value": 119, "unit": "mg/kg/day"}
    ]},
    {"molecule": "O=c1[nH]c(=O)n([C@H]2CCCO2)cc1F", "values": [
      {"measurement": "carcinogen call", "setting": "mouse, strain CBA x C57BL, females, site: any site (literature study), lesion: several types, types named in the paper, study length 84 weeks", "value": "inactive: negative"},
      {"measurement": "carcinogen call", "setting": "mouse, strain CBA x C57BL, females, site: liver, lesion: one or several types, types not named, study length 84 weeks", "value": "inactive: negative"},
      {"measurement": "carcinogen call", "setting": "mouse, strain CBA x C57BL, males, site: any site (literature study), lesion: several types, types named in the paper, study length 86 weeks", "value": "inactive: negative"},
      {"measurement": "carcinogen call", "setting": "mouse, strain CBA x C57BL, males, site: liver, lesion: one or several types, types not named, study length 86 weeks", "value": "inactive: negative"},
      {"measurement": "carcinogen call", "setting": "rat, strain Wistar, females, site: any site (literature study), lesion: several types, types named in the paper, study length 117 weeks", "value": "inactive: negative"},
      {"measurement": "carcinogen call", "setting": "rat, strain Wistar, females, site: liver, lesion: one or several types, types not named, study length 117 weeks", "value": "inactive: negative"},
      {"measurement": "carcinogen call", "setting": "rat, strain Wistar, males, site: any site (literature study), lesion: several types, types named in the paper, study length 126 weeks", "value": "inactive: negative"},
      {"measurement": "carcinogen call", "setting": "rat, strain Wistar, males, site: liver, lesion: one or several types, types not named, study length 126 weeks", "value": "inactive: negative"}
    ]}
  ]
}
